Experimental data taken from patent publication US20140037708A1, “COMPOSITION FOR SPATIO AND/OR TEMPORAL RELEASE OF BIOACTIVE MATERIAL” (The Regents of the University of Colorado, a body corporate, priority 2012, published 2014).

Assay: Double-sided release test of fluorescent molecules from electrospun scaffolds in custom-made diffusion chambers
Format: physicochemical
Method: For molecule release characterizations, the circular samples with 24 mm in diameter were cut from PCL-PLGAac and PCL-PLGAes scaffolds loaded with fluorescent dye or fluorescently-labeled albumin. For each experimental condition, 3 samples were used for analyses. Scaffold samples were placed in a custom-made diffusion-test system in which a sample was sandwiched between two reservoir chambers. Each side of the electrospun scaffolds thus faced a different reservoir filled with 1 ml of buffer solution. The reservoirs used SecureSeal hybridization chambers (Grace Biolabs, Bend, Oreg.) which tightly sealed the surface. Each reservoir had small holes for sampling and changing solutions. The holes were covered with silicone sealing tap during experiments to prevent evaporation. Thus, the molecule movements between the reservoirs could only be through the pores of the electrospun materials. The release tests were performed at 37° C. Samples of buffer solutions in both reservoirs were collected every day during the first 16 days, and subsequently once a week for scaffolds loaded with fluorescent albumins. A shorter release experiment was performed in case of electrospun scaffolds loaded with Rh123. After samples were taken, the reservoir chambers were rapidly rinsed with DI water and refilled with fresh phosphate buffer at 37° C. Samples of 200 μl in triplicates were analyzed in 96-well microplates with a Victor 2 microplate reader (PerkinElmer, Santa Clara, Calif.) to quantify the released amount of Rh123, AlbF and AlbT. The concentration and net amount of released Rh123, AlbF and AlbT were determined using the respective calibration curves. The geometry and porosity of the molecule-releasing scaffolds kept constant for all the experimental samples. For the designs with multiple molecules, as various fluorophores could be simultaneously released by the samples, the possibility of the overlap of the fluorophore emission spectra was examined; we could find no overlaps in the interested spectrum ranges. […] For each type of molecule, the efficiency of separation between Side A and Side B, Smolecule—A-B, was defined as the percentage of the molecule released on Side A over the total amount of the molecule released on Sides A and B during the entire experimental duration.
To assess the potential use of PCL-PLGAac and PCL-PLGAes materials for spatially controlled release of active molecules, release experiments were performed using Rh123. PCL and PLGA/Rh123 solutions were electrospun to prepare scaffolds following the pattern described in FIG. 1. Release studies were carried out in custom-made diffusion chambers illustrated in FIG. 7a. The two sealed reservoirs filled with phosphate buffer solution were placed on the opposite sides of the electrospun scaffolds. The PCL side of the scaffold was set to face the buffer reservoir chamber on Side “A”; the Rh123-impregnated PLGA side was placed in contact with the buffer reservoir on Side “B”. […] The separation efficiency of Rh123 between the two surfaces (SRh123—B-A) of the PCL-PLGAac scaffolds was 82±5% during the 9-day release experiment. […] In addition, after day 3, the molecule concentration measured on the PCL side exceeded that on the PLGAes side.

Substance: tetra-methyl-rhodamine isothiocyanate conjugate bovine serum albumin [AlbT]
- separation efficiency (release of two proteins to one side) (PCL-PLGAac composite scaffold, AlbF in inner PLGAac fibers, AlbT in outer PLGAac fibers (FIG. 10a)): 91±4%
- separation efficiency for AlbT between side B and side A (PCL-PLGAac scaffold, AlbT in PLGAac nanofibers, Side B = PLGAac side, 50-day experiment, 37° C.): 90±4%
- total amount of entrapped AlbT released during the experiment (PCL-PLGAac scaffold, 50-day experiment, estimated with PLGAac content of 48%): approximately 88%
- total loaded protein released in 9 days (PCL-PLGAac scaffold, 9 days): 80%
- sustained release at a constant rate after day 9 (PCL-PLGAac scaffold, after day 9): about 1 % per week
- total loaded protein released in the first 24 hours (PCL-PLGAac scaffold, first 24 hours): Approximately 20%
- separation efficiency between side B and side A (sequential release scaffold) (PCL/PLGA scaffold with dual PLGA gradient patterns: AlbF-loaded PLGA in the middle, AlbT-loaded PLGA close to side B (FIG. 11a)): 0.85±0.04
- separation efficiency of AlbT between Side B and Side A (SAlbT B-A) (PLGAac-PCL-PLGAac composite scaffold, release to opposite sides (FIG. 12)): 92±3%
- day on which daily net release to side B peaked (sequential release scaffold (FIG. 11), first 12 days): day 1 and day 2
